US7261876B2, “Multivalent constructs for therapeutic and diagnostic applications” (Bracco International BV, priority 2002, dated 2007)

By UniProt entry, the sequences of proteins in these tests, tags left out. Residues count along the entry.
UniProt P35968, 20-1356: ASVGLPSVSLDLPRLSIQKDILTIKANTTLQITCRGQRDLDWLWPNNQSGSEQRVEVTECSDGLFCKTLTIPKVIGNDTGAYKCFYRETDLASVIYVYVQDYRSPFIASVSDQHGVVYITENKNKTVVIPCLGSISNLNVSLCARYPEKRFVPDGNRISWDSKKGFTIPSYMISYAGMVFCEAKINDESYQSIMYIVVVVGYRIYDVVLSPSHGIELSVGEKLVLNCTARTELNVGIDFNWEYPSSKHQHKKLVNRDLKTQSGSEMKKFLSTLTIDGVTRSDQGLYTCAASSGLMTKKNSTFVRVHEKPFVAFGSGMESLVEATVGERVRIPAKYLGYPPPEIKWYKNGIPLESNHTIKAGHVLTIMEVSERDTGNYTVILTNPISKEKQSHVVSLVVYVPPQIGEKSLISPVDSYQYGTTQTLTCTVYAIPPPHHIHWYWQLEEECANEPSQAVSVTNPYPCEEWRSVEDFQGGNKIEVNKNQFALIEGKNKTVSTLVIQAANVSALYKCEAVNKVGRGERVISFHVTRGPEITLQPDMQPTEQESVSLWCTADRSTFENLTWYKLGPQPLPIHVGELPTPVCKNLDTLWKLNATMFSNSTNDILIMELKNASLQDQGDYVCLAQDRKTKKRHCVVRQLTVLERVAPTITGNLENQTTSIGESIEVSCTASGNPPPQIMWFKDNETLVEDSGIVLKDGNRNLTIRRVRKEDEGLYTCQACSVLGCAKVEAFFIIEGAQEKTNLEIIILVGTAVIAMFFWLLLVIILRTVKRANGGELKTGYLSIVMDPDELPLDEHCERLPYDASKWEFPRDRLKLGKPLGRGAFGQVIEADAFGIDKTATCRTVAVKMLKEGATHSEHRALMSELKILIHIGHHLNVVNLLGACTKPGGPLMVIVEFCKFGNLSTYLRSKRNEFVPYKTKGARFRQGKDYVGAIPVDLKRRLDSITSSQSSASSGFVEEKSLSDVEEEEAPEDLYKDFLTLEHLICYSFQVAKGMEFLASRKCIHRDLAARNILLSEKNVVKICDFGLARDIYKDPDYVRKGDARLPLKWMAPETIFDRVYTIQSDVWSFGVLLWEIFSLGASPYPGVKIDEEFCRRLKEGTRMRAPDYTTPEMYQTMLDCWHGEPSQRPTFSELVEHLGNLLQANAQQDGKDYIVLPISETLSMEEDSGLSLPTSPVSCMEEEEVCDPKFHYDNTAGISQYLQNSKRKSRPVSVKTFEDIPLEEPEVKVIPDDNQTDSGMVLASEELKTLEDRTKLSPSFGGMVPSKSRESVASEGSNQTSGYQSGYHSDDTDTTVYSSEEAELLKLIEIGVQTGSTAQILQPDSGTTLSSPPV

Assays:
[1] = molecular target: KDR expressed in transiently-transfected 293H cells (Homo sapiens, UniProt P35968); assay: Binding of biotinylated peptide/neutravidin (avidin) HRP complexes to KDR-transfected 293H cells; conditions: tetrameric peptide/neutravidin HRP complex; saturation binding, KDR minus mock
[2] = molecular target: T1, KDR-expressing cells (Homo sapiens, UniProt P35968); assay: Displacement assay competing with P12-XB/streptavidin-HRP complex for binding to KDR-expressing cells; conditions: complex concentration 5.5 nM
T1 construct: Both PCR products were digested with Not1 and ligated together to create the full-length receptor; V5-His (encoded by the vector); expressed in transfected cells; host or cells: 293H cells (Invitrogen cat. # 11631), transient lipofectamine 2000 transfection

Substance: Ac-AGPTWCEDDWYYCWLFGTJK-(Biotin-JJ-)-NH2 [P12-F-XB]
- Kd [1]: 3.02 nM

Substance: Ac-AQDWYYDEILJGRGRGGRGG-NH2 [F3]
- IC50 ([2]; read-out: IC50): 175 nM

Substance: Ac-AQDWYYDEILSMADQLRHAFLSGG-GGGK-(Biotin-JJ-)-NH2 [P13-XB]
- IC50 [2]: 93 nM

Like-named read-outs stand apart in the source and are kept apart here.
